Test results taken from patent publication US5607691A, “Compositions and methods for enhanced drug delivery” (priority 1995, dated 1997).

Tests used:
[1] = assay type: in vitro ADME; conditions: human
Text: Table 4 lists the serum half-lives for several model compounds and two representative pharmaceutical agent-chemical modifier complexes using an in vitro assay system described in the Experimental section below. Of course, the serum half-lives will vary in vivo depending upon the age and health condition of the patient. Each complex comprises a model compound or a pharmaceutical agent, a spacer group, and a chemical modifier. Many of the model compounds utilize 4-nitrophenyl(ethanol, propanol, or cyclohexanol) or 4-nitrophenylethylamine as the "model" pharmaceutical agent. A more complete listing of serum half-lives may be found in the Experimental section below.
General procedure for serum hydrolysis of pharmaceutical agent-modifier complexes
Stock solutions (6 mM) of the pharmaceutical agent-modifier complexes were prepared in ethanol (by vortexing, sonication or warming at 37° C. if necessary). If required for solubility, a drop of dimethylsulfoxide, dimethylformamide or methanol may be added. (Acetonitrile cannot be used because it deactivates the serum enzymes.)
HPLC separation methods were established for each study by dilution of the above stock solution (6 μl) in acetonitrile (1 ml) to give a 36 μM solution. Samples (10 μl) were injected onto a Nucleosil 5C8 (250×4 mmID) and guard column (11×4 mm ID) and eluted with a mobile phase of approximately 65% HPLC grade water and 35% of a solution of 0.1% trifluoroacetic acid in acetonitrile, the exact proportions being adjusted in each case to give optimum separation and run times.
Freshly defrosted human serum (3 ml, Sigma) was warmed at 37° C. for five minutes and then 60 μl of the agent-modifier complex stock solution was added with vortexing. […] The aliquots were added to 800 μl of 2% zinc sulfate solution in a 1.5 ml disposable microcentrifuge tube, vortexed immediately and centrifuged at 14,000 RPM for 3 minutes. The supernatants (10 μl) were then injected onto the HPLC and peak areas were used to determine the % remaining. Serum blanks were prepared similarly by addition of serum to the zinc sulfate solution followed by centrifugation, and time=0 samples were also prepared by adding serum to the zinc sulfate solution followed by addition of the complex and separation by centrifugation. The time=0 samples, as well as the original stock solutions, were also used to study the stability of the complex in the absence of enzyme. Half-lives were calculated using the equation
by plotting time (x) vs. ln % remaining (y) to obtain the slope (m) and the y intercept (b).

[2] = saturated sodium carbonate, room temperature, 10 minutes

Substance	Serum Half-life [1] [h]	conversion back to piroxicam [2]
digitoxin-4'"-(6-morpholino-hexanoate)	47	
digoxin-4'"(3'")-(6-trimethylaminohexanoyloxy-methyl ether iodide salt	10	
piroxicam-N,O-bis(choline chloride) carbonate ester [piroxicam bis(choline chloride) adduct]		total conversion back to piroxicam
digoxin-3'-(choline carbonate)-3'",4'"-cyclic carbonate, dibromide salt	22	
digoxin-3"'-(choline carbonate)-3'",4'"-cyclic carbonate, dibromide salt	22	
